Structures are written as SMILES.

The species entered for the assay is Homo sapiens. Put plainly: Selectivity index, ratio of Ki for BCL-2 (unknown origin) to Ki for BCL-XL (unknown origin).

In the case of `CN(C)CC#Cc1ccc(OCCCc2sc(N3CCc4cccc(C(=O)Nc5nc6ccccc6s5)c4C3)nc2C(=O)O)c(F)c1` [A-1155463], the Ratio Ki was > 1000.

Values taken from ChEMBL document CHEMBL3351549, “Discovery of a Potent and Selective BCL-XL Inhibitor with in Vivo Activity” (ACS Med Chem Lett, 2014).
